# Test results as given in patent publication US9447023B2, “Curcumin and tetrahydrocurcumin derivatives” (Research Foundation of the City University of New York, priority 2006, dated 2016).
# Assay: Molar extinction coefficient of curcumin analogs (UV-visible)
# Assay type: physicochemical
# Details: in M-1 cm-1 (unit assumed)
# Description: Each curcumin derivative is bioconjugated to create a biopolymer that can be used as an eco-friendly dye. For example, compounds 1b and 1d can be conveniently conjugated to the lysine residues of proteins, the azide and the alkyne derivatives can be attached to proteins via the ‘click’ bioconjugation reaction. Compounds 1c and 1e have the advantage that unlike most reactive groups which are used for bioconjugation, alkyne and azide groups are stable in aqueous media (Scheme 5). The absorbance and fluorescence properties of these dyes are similar to the parent molecule.
# Reagent-grade solvents such as acetone and tetrahydrofuran were used without further purification. For High Performance Liquid Chromatography (HPLC), methylene chloride was used with Pure Solv™ solvent purification system. Curcumin was obtained from Acros-Organics. Copper acetate and sodium ascorbate were purchased from Sigma. Silica gel 60 F 254 plates for thin-layer chromatography (TLC) were purchased from Merck. Column chromatographic separations were carried out using silica gel (Fisher) with a particle size of 0.040-0.063 mm. Nuclear magnetic resonance (NMR) was recorded on Bruker Avance 600 (600 MHz) spectrometers. Mass spectra (ES-MS) were recorded on a LC/MS and Time Of Flight (TOF) mass spectrometer. U.V.-Visible spectra were recorded using a ChemStation Rev. A.10.01 from Agilent Technologies
substance,measurement,value
Curcumin Acrylate,Molar Extinction Coeffecient,46874
